Binding of CDR-mutated scFvs to a peptide of the spike HR2 region

Target: peptide PDVDLGDISGINAS, taken from heptad repeat 2 (HR2) of SARS-CoV-2 spike.

Each scFv is VH, a (GGGGS)3 linker, VL, as in the parent Ab-14, and differs from it in the CDRs of the heavy chain only.
VH: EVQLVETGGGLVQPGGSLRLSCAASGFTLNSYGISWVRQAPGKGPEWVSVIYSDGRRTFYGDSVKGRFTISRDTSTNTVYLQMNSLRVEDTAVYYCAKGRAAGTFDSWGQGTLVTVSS
VL: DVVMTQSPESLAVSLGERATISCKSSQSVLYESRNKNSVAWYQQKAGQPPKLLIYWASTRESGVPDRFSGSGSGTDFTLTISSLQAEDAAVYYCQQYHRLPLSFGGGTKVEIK

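Phage display of a naive human antibody library on the peptide gave the parent. AAYL49 was designed without a model: most single CDR substitutions and a random sample of double and triple ones. Affinity was read by AlphaSeq, a pooled yeast mating assay with surface-displayed partners. Mating (16 h, 30 °C) was followed by selection of diploids and sequencing of their barcodes. Read counts were normalised to the haploid input and turned into Kd by a linear fit to BCL2-family pairs of known affinity, for each replicate. There are three technical replicates.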

Changes read parent residue, position, new residue, counted from the first residue of the VH shown. Affinities are written as log10 Kd with Kd in nM; a lower number is a better binder. Replicates are averaged; those with no signal do not enter the mean. "ND" means that the variant was in the library but no mating with the target was seen in that replicate; the authors take this as a sign of poor binding, and no number exists.

changes	log10 Kd (nM) by replicate	mean, log10 nM	signal with controls
Y32E+I34W+S35A	ND / ND / ND	ND	1 of 9 (4.78)
D54V+G61V+K65L	4.35 / ND / ND	4.35	1 of 9 (4.86)
D62H+A101D	1.58 / 1.83 / 1.47	1.63	1 of 9 (5.45)
I34E+S53L+S107Y	ND / ND / ND	ND	0 of 9
N30Q+S31R+A102G	2.44 / 2.38 / 1.88	2.24	0 of 9
F105C	ND / ND / 3.65	3.65	1 of 9 (3.56)
G26V+S53N+D62H	ND / ND / ND	ND	0 of 9
I34D+K65M	3.40 / ND / ND	3.40	1 of 9 (3.01)
G26Y+Y52G+S53A	2.82 / 2.50 / ND	2.66	0 of 9
G26H+G33I+G55C	6.50 / ND / ND	6.50	5 of 9 (4.76)
S53Y+S63A+K65Y	ND / 3.26 / 3.12	3.19	1 of 9 (3.56)
N30C+V50T+A101N	ND / ND / 4.00	4.00	3 of 9 (3.57)
G55K+F59Y+K65W	ND / 5.12 / 4.96	5.04	2 of 9 (4.02)
G26A+R57M+A101W	ND / 3.95 / 5.41	4.68	2 of 9 (4.92)
G33L+G55A+S63E	ND / ND / ND	ND	0 of 9
N30C+V50H+F105S	4.85 / ND / ND	4.85	3 of 9 (4.38)
I51H+Y52T+D54A	ND / ND / ND	ND	0 of 9
G26M+Y60E+K65L	4.82 / 3.61 / 4.37	4.27	3 of 9 (3.81)
V50E+D54F+V64M	ND / ND / ND	ND	1 of 9 (3.74)
G61Q+A101C+F105Y	2.29 / 3.52 / 3.65	3.16	3 of 9 (3.30)
R56I+K65R+G103S	4.85 / ND / ND	4.85	1 of 9 (3.00)
Y32S+D62N+A101D	ND / ND / ND	ND	0 of 9
L29G+G55N	ND / ND / 4.41	4.41	1 of 9 (3.81)
Y52S+G99H+G103Q	4.87 / 5.27 / 5.97	5.37	4 of 9 (4.53)
S31Y+S35V+G99Q	ND / 3.05 / ND	3.05	0 of 9
S31A+Y32P+A102Q	ND / 4.08 / ND	4.08	3 of 9 (4.25)
I34R+Y60F+G61D	ND / ND / 4.42	4.42	1 of 9 (4.59)
Y52H+Y60T+A101K	ND / ND / ND	ND	6 of 9 (4.88)
K65L+G99D+D106V	0.70 / 0.83 / 0.80	0.78	2 of 9 (3.03)
T28G+G33E+F105D	ND / ND / 4.20	4.20	4 of 9 (3.46)
L29K+F59K+K65G	5.31 / ND / ND	5.31	2 of 9 (3.58)
V50F+S53Y+D54L	ND / ND / ND	ND	0 of 9
L29F+S53R+R100Y	5.49 / ND / 4.98	5.24	1 of 9 (3.16)
L29P+G55L	ND / ND / ND	ND	3 of 9 (4.00)
G33H+Y60Q+A101V	ND / ND / ND	ND	0 of 9
Y52L+F59H	ND / 3.86 / ND	3.86	2 of 9 (3.97)
Y32R+S35N+F59S	6.03 / ND / 3.22	4.63	3 of 9 (3.65)
I51H+G103F+D106L	ND / ND / ND	ND	1 of 9 (4.63)
R57W+T58W+V64D	5.05 / 4.28 / 3.59	4.31	4 of 9 (5.03)
I34W+V50T+Y60H	3.63 / 3.79 / 4.36	3.93	7 of 9 (4.19)
D54M+G103N+D106I	ND / 4.09 / ND	4.09	2 of 9 (3.52)
L29V+I51A+D54V	ND / 4.23 / ND	4.23	1 of 9 (3.01)
V50I+I51C+G103D	ND / ND / ND	ND	2 of 9 (4.57)
N30L+I51D+R56F	ND / ND / 3.17	3.17	1 of 9 (2.60)
G26C+S31M+D54Y	ND / ND / 3.44	3.44	1 of 9 (3.70)
I34E+R56A+T58G	ND / ND / 3.92	3.92	0 of 9
G26P+T28L+V64A	2.39 / 1.93 / 2.28	2.20	1 of 9 (3.64)
N30G+V50Q+G103D	ND / ND / ND	ND	0 of 9
I51K+S53G+G61E	5.51 / ND / ND	5.51	0 of 9

The closing 3 entries, repeated:

| changes | log10 Kd (nM) by replicate | mean, log10 nM | signal with controls |
|---|---|---|---|
| G26P+T28L+V64A | 2.39 / 1.93 / 2.28 | 2.20 | 1 of 9 (3.64) |
| N30G+V50Q+G103D | ND / ND / ND | ND | 0 of 9 |
| I51K+S53G+G61E | 5.51 / ND / ND | 5.51 | 0 of 9 |

Empty control strains, which show no peptide, gave a signal in 15% of pairings with library AAYL49; the median was 4.06 and 95% of these signals were weaker than 2.83. No background was subtracted. The control count says in how many pairings with the empty strains this scFv gave a signal, with their mean in brackets. Parent in this assay: reference entry 0.65, copy in this library 4.11 (one replicate of three).

From the AlphaSeq antibody data of Engelhart et al. 2022 (doi:10.1038/s41597-022-01779-4), copy in the FLAb collection.